Test results: US5696239A, “Conjugates possessing ortho ligating functionality and complexes thereof” (The Dow Chemical Company, priority 1995, dated 1997)

Experiment: Percent complex determination, samarium complexes (Sephadex C-25 cation exchange)
Type: physicochemical
Protocol: A disposable 10 ml plastic (Biorad) column was filled with 1 to 2 ml of water-swelled Sephadex™ C-25 cation exchange resin. The water was pressure eluted to the top of the resin. Fifteen μl of the complex (or more if counts were low) were added to the top of the resin. This was followed by 2 ml of 4:1 (V:V) isotonic saline:conc. ammonium hydroxide solution as an eluent which was allowed to drip into a counting tube. This was also pressure eluted to the top of the resin. An additional 2 ml of the eluent were added and the column pressure eluted to remove all liquid. The dried resin was then placed in a third counting tube and the three tubes counted on a NaI well counter using a Canberra multichannel analyzer linked to a computer. The percent complex was determined by dividing the number of counts in the two elutions by the total counts in the elutions plus the column, all times 100.
Percent complex determination was made in the same manner as for the yttrium complex.

Question: For “2,6-BIS{[(2-{[BIS(CARBOXYMETHYL)]AMINO}ETHYL)(CARBOXYMETHYL)]AMINOMETHYL}- 4-(AMINO)PHENOL, SAMARIUM COMPLEX [Example XX]”, which “percent complex, Sm” value (after purification by anion exchange chromatography) is on record?
Answer: 95%

Question: And the “percent complex, Sm” value (as prepared, pH 7, before purification)?
Answer: 68%
